Measured values: US20230365558A1, “TETRAHYDROISOQUINOLINE DERIVATIVE AND USE THEREOF” (MEDSHINE DISCOVERY INC., priority 2020, published 2023)

These compounds were tested on Z-138 non-Hodgkin's lymphoma cells (assay: In vitro anti-proliferation assay of Z-138 cells (CellTiter-Glo, 6 days)). Details: read-out: IC50 (nM), in vitro anti-proliferative activity on Z-138 tumor cells.

SMILES | IC50 [nM]
COc1cc2c(cc1C(=O)NC[C@H](O)CN1CCc3ccccc3C1)NC(=O)[C@@]1(CCOC1)O2 | 11.5
O=C(NC[C@H](O)CN1CCc2ccccc2C1)c1ccc2c(c1)NC(=O)C1(COC1)O2 | 27
O=C(NC[C@H](O)CN1CCc2ccccc2C1)c1ccc2c(c1)NC(=O)C1(CCC1)O2 | 54
COc1cc2c(cc1C(=O)NC[C@H](O)CN1CCc3ccccc3C1)NC(=O)[C@]1(CCOC1)O2 | 29.3
